Measured values reported in PMC3423582 (Bioorganic & medicinal chemistry letters, 2012).

Test system: reactive oxygen species in BJ-TERT/LT/ST/RAS^V12 cells
Experiment: ROS levels by DCF fluorescence
Conditions: erastin 6 hrs, RSL3 6 hrs, compound 27 18 hrs

Row | Structure (SMILES) | ROS levels (DCF fluorescence)
1 | CCOC(=O)C1c2c(c3ccccc3n2C)CCN1C(=O)OC (stereo not drawn) [Compound 27] | induced increases in DCF fluorescence
2 | COC(=O)c1ccc(C2c3[nH]c4ccccc4c3CC(C(=O)OC)N2C(=O)CCl)cc1 (stereo not drawn) [RSL3] | induced increases in DCF fluorescence
3 | CCOc1ccccc1-n1c(C(C)N2CCN(C(=O)COc3ccc(Cl)cc3)CC2)nc2ccccc2c1=O (stereo not drawn) [erastin] | induced increases in DCF fluorescence
